The text below walks through data of BindingDB's records for doi:10.1016/0006-2952(86)90769-0 (Wyeth Laboratories, 1986).

Sequences of proteins named here, by UniProt entry; tags and fusion partners are left off.
UniProt P23977, whole entry: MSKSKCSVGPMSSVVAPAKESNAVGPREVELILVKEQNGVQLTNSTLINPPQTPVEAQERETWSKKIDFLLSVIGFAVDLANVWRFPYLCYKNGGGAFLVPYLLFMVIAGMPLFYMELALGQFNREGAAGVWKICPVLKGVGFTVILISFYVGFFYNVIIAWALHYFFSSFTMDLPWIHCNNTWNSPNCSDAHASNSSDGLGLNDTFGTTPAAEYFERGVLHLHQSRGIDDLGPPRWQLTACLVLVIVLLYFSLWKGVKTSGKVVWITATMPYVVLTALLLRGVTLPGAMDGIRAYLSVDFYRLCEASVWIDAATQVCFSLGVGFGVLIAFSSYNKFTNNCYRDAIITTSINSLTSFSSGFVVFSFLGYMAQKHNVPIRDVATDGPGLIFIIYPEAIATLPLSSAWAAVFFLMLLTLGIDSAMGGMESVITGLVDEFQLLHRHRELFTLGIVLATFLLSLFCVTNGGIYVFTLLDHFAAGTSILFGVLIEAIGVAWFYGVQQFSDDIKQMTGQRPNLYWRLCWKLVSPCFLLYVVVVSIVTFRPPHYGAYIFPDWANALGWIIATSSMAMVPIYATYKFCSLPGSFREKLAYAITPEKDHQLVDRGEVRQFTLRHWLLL

Values joined by “and” are separate entries in the source; they are usually repeats but may differ in a detail not shown here. Equal values may be shown once.

The target in test [1] is Sodium-dependent dopamine transporter (Rattus norvegicus, UniProt P23977).
Test [2] deals with Norepinephrine transporter (Rattus norvegicus, UniProt Q9JIA2).

Usually Ki stands for a dissociation constant, usually derived from enzyme kinetics or from competition with a known ligand. Read a high Ki as weaker binding. Turning to `COc1ccc(C(CN(C)C)C2(O)CCCCC2)cc1` (configuration not stated) [NSC_62923], the inhibition constant (Ki) is 2.8 nM in test [1]; 0.64 nM and 0.76 nM and 3.14 nM in test [2].
